This data set deals with Kanamycin A. Kind of data set: purified protein, by the assay type. The conditions noted are these: other: saturating MgATP (2.5 mM), aminoglycoside 0 to 100 μM, 25 °C, pH 7.5, na = no detectable activity.

Here are results for 1 substance from article PMC4769084, “Aminoglycoside binding and catalysis specificity of aminoglycoside 2″-phosphotransferase IVa: A thermodynamic, structural and kinetic study” (Biochimica et Biophysica Acta, 2016).

As to “APH(2″)-IVa (Enterococcus casseliflavus)”, the Km was found to be 4.0 ± 0.5 µM, the kcat worked out at 0.90 ± 0.02 s^− 1 and the kcat/Km was determined as 0.225 μM^− 1 s^− 1.
